Target: 5-HT2A receptor (Homo sapiens, UniProt P28223)
Experiment: biochemical

Protein sequences, listed by entry. Tags and fused reporters are not part of them.
UniProt P28223, whole entry: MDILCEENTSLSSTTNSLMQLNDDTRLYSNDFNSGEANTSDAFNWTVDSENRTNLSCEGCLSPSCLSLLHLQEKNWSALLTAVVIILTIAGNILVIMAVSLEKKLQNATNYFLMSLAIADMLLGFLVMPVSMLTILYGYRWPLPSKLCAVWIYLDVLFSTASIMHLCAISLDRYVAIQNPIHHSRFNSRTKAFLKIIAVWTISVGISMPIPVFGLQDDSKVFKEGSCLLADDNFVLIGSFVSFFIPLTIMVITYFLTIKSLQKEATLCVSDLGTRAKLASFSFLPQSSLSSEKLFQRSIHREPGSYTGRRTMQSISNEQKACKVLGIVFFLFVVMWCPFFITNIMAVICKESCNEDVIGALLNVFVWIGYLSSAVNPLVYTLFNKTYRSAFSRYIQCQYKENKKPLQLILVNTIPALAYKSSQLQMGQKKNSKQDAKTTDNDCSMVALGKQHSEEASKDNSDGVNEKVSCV

CN[C@@H](C)C(=O)c1ccc(C)cc1 [S-MEPH, S-mephedrone]
Ki: 1300 nM

— publication PMC5548612 (Drug and alcohol dependence, 2017)
